# In patent US11219621B2, “Methods for treating immunodeficiency disease” (X4 Pharmaceuticals, Inc., priority 2015, dated 2022):
# Amino acid sequences for entries named in this document (tags omitted). A change or cut given only in a name is not applied to a line headed by its entry. Residues count along the entry.
# UniProt P61073, whole entry: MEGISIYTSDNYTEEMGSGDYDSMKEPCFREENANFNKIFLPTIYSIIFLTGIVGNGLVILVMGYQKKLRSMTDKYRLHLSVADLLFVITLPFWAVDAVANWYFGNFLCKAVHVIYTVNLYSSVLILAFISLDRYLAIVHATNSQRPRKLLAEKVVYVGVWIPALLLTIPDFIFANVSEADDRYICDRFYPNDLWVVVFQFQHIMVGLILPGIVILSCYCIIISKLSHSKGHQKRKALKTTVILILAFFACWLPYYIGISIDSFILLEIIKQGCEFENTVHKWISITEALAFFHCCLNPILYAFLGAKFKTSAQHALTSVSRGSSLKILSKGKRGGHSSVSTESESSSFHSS
# UniProt P61073, 1-333 limits assumed: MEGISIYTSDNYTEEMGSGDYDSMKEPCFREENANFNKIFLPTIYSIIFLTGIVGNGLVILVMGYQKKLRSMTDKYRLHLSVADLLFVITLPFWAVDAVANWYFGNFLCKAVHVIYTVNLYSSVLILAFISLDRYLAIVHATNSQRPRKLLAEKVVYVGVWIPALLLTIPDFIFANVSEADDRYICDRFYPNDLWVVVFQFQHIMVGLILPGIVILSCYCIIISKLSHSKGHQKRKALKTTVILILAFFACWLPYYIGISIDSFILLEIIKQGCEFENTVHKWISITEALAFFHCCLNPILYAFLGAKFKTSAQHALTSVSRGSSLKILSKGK
# UniProt P61073, 1-342 limits assumed: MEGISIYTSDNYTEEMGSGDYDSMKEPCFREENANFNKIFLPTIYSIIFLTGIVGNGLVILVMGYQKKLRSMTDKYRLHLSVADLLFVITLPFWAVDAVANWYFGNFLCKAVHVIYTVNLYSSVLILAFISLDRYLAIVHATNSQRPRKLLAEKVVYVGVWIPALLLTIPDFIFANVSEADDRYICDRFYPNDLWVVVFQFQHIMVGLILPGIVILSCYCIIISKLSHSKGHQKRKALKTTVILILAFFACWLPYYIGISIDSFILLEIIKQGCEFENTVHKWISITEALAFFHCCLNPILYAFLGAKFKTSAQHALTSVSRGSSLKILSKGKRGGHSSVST
# How the values were obtained:
# CXCR4 [1] = biological target: T1, CXCR4 (Homo sapiens, UniProt P61073)
# CXCR4 [2] = biological target: T1, CXCR4; settings: CCRF-CEM cells; 2.5 nM SDF-1α; mean ± SE; read-out: IC50, SDF-1α mediated calcium flux; cited from earlier work
# R334X CXCR4 variant = biological target: T2, R334X CXCR4 variant (Homo sapiens, UniProt P61073); settings: R334X variant in Cf2Th; read-out: IC50, inhibition of SDF-1α-mediated calcium flux; cited from earlier work
# T2 construct: expressed in transfected cells; host or cells: Cf2Th (canine thymus cell line lacking CXCR4)
# E343X CXCR4 variant = biological target: T3, E343X CXCR4 variant (Homo sapiens, UniProt P61073); settings: E343X variant in Cf2Th; read-out: IC50, inhibition of SDF-1α-mediated calcium flux; cited from earlier work
# T3 construct: expressed in transfected cells; host or cells: Cf2Th (canine thymus cell line lacking CXCR4)
# CXCR4 [3] = biological target: T1, CXCR4; settings: read-out: IC50, inhibition of [125I]-SDF-1α ligand binding; CCRF-CEM cells; single site binding model; mean ± SE; cited from earlier work
# CXCR4 [4] = biological target: T1, CXCR4; settings: read-out: IC50, Eu-GTP binding; mean ± SE; cited from earlier work
# CXCR4 [5] = biological target: T1, CXCR4; settings: read-out: IC50, [35S]-GTPγS binding; mean ± SE; cited from earlier work
# CXCR4 [6] = biological target: T1, CXCR4; settings: read-out: IC50, SDF-1α mediated chemotaxis; CCRF-CEM cells; mean ± SE; cited from earlier work
smiles,measurement,setting,value
NCCCCN(Cc1nc2ccccc2[nH]1)[C@H]1CCCc2cccnc21 [X4P-001],IC50,CXCR4 [1],21.5 nM
same,IC50,CXCR4 [2],9 ± 2 nM
same,IC50,R334X CXCR4 variant,8.5 nM
same,IC50,E343X CXCR4 variant,4.6 nM
same,IC50,CXCR4 [3],12.5 ± 1.3 nM
same,IC50,CXCR4 [4],39.8 ± 2.5 nM
same,IC50,CXCR4 [5],19 ± 4.1 nM
same,IC50,CXCR4 [6],19 ± 4 nM

# Read-outs that look alike come from different tables or passages of the source.
